The conditions of series [1]: mouse, in vivo, iv, 5 mg/kg.
The conditions of series [2]: pig, in vivo, iv, 5 mg/kg.
For series [3] the following is noted: human, in vivo.
For series [4] the following is noted: in vivo.
In another series the test system is S. pyogenes. The following applies: mouse, in vivo.
For series [5] the following is noted: mouse, in vivo, 5 mg/kg.
For series [6] the following is noted: pig, in vivo, 5 mg/kg.
The conditions of series [7]: human, in vivo. The source holds these as a separate data set.
Series [8] can be described thus: in vivo. The following applies: mouse, iv, 5 mg/kg.
Series [9] can be described thus: in vivo. The settings on record: pig, iv, 5 mg/kg.
A further series can be described thus: clinical. The following applies: human, in vivo, iv, 0.45 mg/kg.

These results are taken from US9567367B2, “Synthetic peptides for treatment of bacterial infections” (priority 2012, dated 2017).

Where two headings read alike, the source gives them in different places.

Broadly, the AUC is concentration integrated over time. A low value points to low exposure. For orientation: Cmax means the highest concentration seen after dosing. Broadly, the clearance is the rate of elimination divided by the concentration. Lower therefore signals inefficient removal. The half-life is how long it takes for the measured level to halve. Read a high half-life as slow loss. The Vd is a proportionality between amount in the body and measured concentration, not a real space. In the case of `CSCC[C@H](NC(=O)[C@@H]1CCCN1C(=O)[C@H](CO)NC(=O)[C@@H](C)N)C(=O)N[C@@H](CC(C)C)C(=O)N[C@H](C(=O)N[C@@H](C)C(=O)N[C@@H](Cc1ccc(O)cc1)C(=O)N[C@@H](CC(=O)O)C(=O)N[C@H](C)C(=O)O)C(C)C` [D-Ala-p2TA, (D-A)SPMLVAYD(D-A)], the AUC in [1] is 1380 ng·h/mL; in series [2] it was 100 ng·h/mL; in series [3] (iv, 0.45 mg/kg), 119 ng·h/mL. The Cmax stood at 21700 ng/mL in [1]; 1750 ng/mL in [2]; 700 ng/mL in series [3] (iv, 0.45 mg/kg). Moreover, the clearance in series [1] is 60.4 mL/min/kg; in series [2], 829 mL/min/kg; in series [3] (iv, 0.45 mg/kg), 69 mL/min/kg. In addition, the half-life in series [1] was 2.65 min; in series [2], 1.3 min; in series [3] (iv, 0.45 mg/kg), 1.83 min; in series [4] it was 1 to 2.6 min. Moreover, the Vd in series [3] was about 0.2 L/kg; in “in vivo [8]”, 0.231 L/kg; in “in vivo [9]”, 1.38 L/kg; in the series “clinical”, 0.191 L/kg. Further, the “kidney and liver functions, treated vs untreated infected mice” value with S. pyogenes is “no observable differences or abnormalities”. Also, the toxic effects entry in series [5] and in series [6] was “showed no toxic effects” in each case. Further, in [7], the “systemic exposure as measured by Cmax and AUC vs dose” value was “appears to be dose proportional”. In [7] (iv), the “T1/2 in plasma, all cohorts” value is recorded as “a little over one minute”.
